Here are results for two molecules from patent US3963716A, “Novel 1-phthalazone derivative, a process for its preparation and a pharmaceutical composition containing it” (priority 1973, dated 1976).

The nature of one series: in vivo. The conditions noted are these: mouse, oral, mice.
For series [1], the target named is cyclic AMP phosphodiesterase. Description: inhibition of cyclic AMP phosphodiesterase, aortic wall intima (rabbit). The series is classed as biochemical. The conditions noted are these: 50% inhibition of cyclic AMP phosphodiesterase; read-out: I50, Aortic Wall, Intima (rabbit). The method, then:
(§1) The procedure of the experiment was carried out in accordance with the method described in H. Hidaka and M. Shibuya: title "A new assay of cyclic nucleotide phosphodiesterase and its application to humans", Biochemical Medicine, (in press).

For series [2], the target named is cyclic AMP phosphodiesterase. Description: inhibition of cyclic AMP phosphodiesterase, aortic wall media (rabbit). The class given is biochemical. The conditions noted are these: 50% inhibition of cyclic AMP phosphodiesterase; read-out: I50, Aortic Wall, Media (rabbit). As for the experimental part:
as §1

The term LD50 denotes the dose expected to kill half of the subjects tested. Read a low LD50 as a more toxic substance. On to `CCOC(=O)c1c(C)cc2c(CO)n[nH]c(=O)c2c1C` [6,8-dimethyl-7-ethoxycarbonyl-4-hydroxymethyl-1-phthalazone], for which the LD50 in the series “in vivo” was found to be 4250 mg/kg. For the molecule `Cn1c(=O)c2[nH]cnc2n(C)c1=O` [theophylline], the IC50 came out at 127 µM in series [1] and 155 µM in series [2].
